Columns and labels:
[1] = target: CRISP3 expressed from a plasmid in yeast (human) (UniProt P54108)
[2] = target: HA-tagged CRISP2 secreted by yeast (UniProt P16562)
[3] = target: Pry1, yeast CAP family protein, expressed from a plasmid in yeast (S. cerevisiae) (UniProt P47032)
[4] = target: CRISP2 (cysteine-rich secretory protein 2), purified, fluorescently labeled (UniProt P16562); assay: MST; 100 nM RED-tris-NTA-labeled CRISP2 (or L98G Y99P mutant) mixed with a serial dilution of unlabeled A1BG or Ig domain; 20 mM Tris pH 7.5, 30 mM NaCl, 0.05% Triton X-100; Monolith NT.115, 80% laser power; one site specific fit; triplicates

The chains behind the UniProt entries cited, without tags or fusion partners. Residues count along the entry.
UniProt P54108, 21-245: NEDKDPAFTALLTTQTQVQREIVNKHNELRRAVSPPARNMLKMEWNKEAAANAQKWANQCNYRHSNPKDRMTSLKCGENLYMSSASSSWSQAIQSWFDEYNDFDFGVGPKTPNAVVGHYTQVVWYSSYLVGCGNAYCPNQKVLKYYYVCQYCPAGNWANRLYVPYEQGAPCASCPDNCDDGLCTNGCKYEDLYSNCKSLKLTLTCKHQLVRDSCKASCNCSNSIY
UniProt P16562, 22-243: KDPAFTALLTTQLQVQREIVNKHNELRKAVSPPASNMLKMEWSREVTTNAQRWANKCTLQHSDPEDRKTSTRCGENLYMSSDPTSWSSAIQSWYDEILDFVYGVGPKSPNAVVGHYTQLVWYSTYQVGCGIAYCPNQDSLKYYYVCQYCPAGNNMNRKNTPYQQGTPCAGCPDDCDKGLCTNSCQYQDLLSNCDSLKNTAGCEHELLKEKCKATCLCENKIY
UniProt P47032, 20-299: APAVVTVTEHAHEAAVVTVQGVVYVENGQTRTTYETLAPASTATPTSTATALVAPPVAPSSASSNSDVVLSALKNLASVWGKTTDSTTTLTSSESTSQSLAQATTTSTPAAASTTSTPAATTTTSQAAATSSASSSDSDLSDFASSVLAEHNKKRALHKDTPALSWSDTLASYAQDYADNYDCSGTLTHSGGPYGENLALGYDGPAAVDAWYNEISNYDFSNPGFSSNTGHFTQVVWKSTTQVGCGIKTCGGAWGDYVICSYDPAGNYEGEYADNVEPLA

## Alpha-1-B glycoprotein (A1BG), full length, purified (from UniProt P04217 22-495) (natural protein)
[1]
  export of acetylated [14C]-cholesterol (export index) from hem1Δ say1Δ pry1Δ pry2Δ yeast coexpressing A1BG and CRISP3: > 50%
[2]
  export of acetylated [14C]-cholesterol (export index) from hem1Δ say1Δ pry1Δ pry2Δ yeast coexpressing A1BG and CRISP2: > 50%
[3]
  export of acetylated [14C]-cholesterol (export index) from hem1Δ say1Δ pry1Δ pry2Δ yeast coexpressing A1BG and Pry1: > 50%
[4]
  Kd: 13.7 nM

Source: article PMC11599453 (The Journal of Biological Chemistry, 2024)
